This note sets out measurements from patent US20130177598A1, “DISCRETE SIZE AND SHAPE SPECIFIC PHARMACEUTICAL ORGANIC NANOPARTICLES” (The University of North Carolina at Chapel Hill, priority 2007, published 2013).

For the assay, the system named is anti-human albumin polyclonal antibody. Description: ELISA assay of free albumin and albumin PRINT particles for biological function determination. In kind it is binding. As to conditions: 5-500 ng/mL; particles harvested directly using buffer; compared with free albumin. Here is the method: A standard ELISA assay was conducted on free albumin and albumin PRINT particles. […] Protein PRINT particles were harvested directly using buffer. In the case of human albumin free protein and protein PRINT particle, an anti-human albumin polyclonal antibody was used and the respective capture antibody in the ELISA.
In general terms: An ELISA detects its analyte on a solid surface through an enzyme-linked reagent.

In the case of “albumin PRINT particles: human albumin nanomolded by PRINT, harvested directly using buffer”, the “retention of biological structure and function after molding (ELISA)” value was “retains biological structure and function”.
